In test [1] the test system is rat brain N-type calcium channel (α1B+α2δ+β1b). As to the kind of experiment: Whole cell patch clamp block of N-type calcium channels expressed in HEK 293 cells. How it is done: (§1) Antagonist activity was measured using whole cell patch recordings on human embryonic kidney cells either stably or transiently expressing rat α1B+α2b+β1b channels (N-type channels) with 5 mM barium as a charge carrier.
(§2) For transient expression, host cells, such as human embryonic kidney cells, HEK 293 (ATCC# CRL 1573) were grown in standard DMEM medium supplemented with 2 mM glutamine and 10% fetal bovine serum. HEK 293 cells were transfected by a standard calcium-phosphate-DNA coprecipitation method using the rat α1B+β1b+α2δ N-type calcium channel subunits in a vertebrate expression vector (for example, see Current Protocols in Molecular Biology).
(§3) After an incubation period of from 24 to 72 hrs the culture medium was removed and replaced with external recording solution (see below). Whole cell patch clamp experiments were performed using an Axopatch 200B amplifier (Axon Instruments, Burlingame, Calif.) linked to an IBM compatible personal computer equipped with pCLAMP software. Borosilicate glass patch pipettes (Sutter Instrument Co., Novato, Calif.) were polished (Microforge, Narishige, Japan) to a resistance of about 4 MΩ when filled with cesium methanesulfonate internal solution (composition in MM: 109 CsCH3SO4, 4 MgCl2, 9 EGTA, 9 HEPES, pH 7.2). Cells were bathed in 5 mM Ba^++ (in mM: 5 BaCl2, 1 MgCl2, 10 HEPES, 40 tetraethylammonium chloride, 10 glucose, 87.5 CsCl pH 7.2). Current data shown were elicited by a train of 100 ms test pulses at 0.066 Hz from −100 mV and/or −80 mV to various potentials (min. −20 mV, max. +30 mV). Drugs were perfused directly into the vicinity of the cells using a microperfusion system.
(§4) Normalized dose-response curves were fit (Sigmaplot 4.0, SPSS Inc., Chicago, Ill.) by the Hill equation to determine IC50 values. Steady-state inactivation curves were plotted as the normalized test pulse amplitude following 5 s inactivating prepulses at +10 mV increments. Inactivation curves were fit (Sigmaplot 4.0) with the Boltzman equation, Ipeak (normalized)=1/(1+exp((V−Vh)z/25.6)), where V and Vh are the conditioning and half inactivation potentials, respectively, and z is the slope factor.
(§5) The method of Example 1 was followed with slight modifications as will be apparent from the description below.
(§6) N-type calcium channel blocking activity was assayed in human embryonic kidney cells, HEK 293, stably transfected with the rat brain N-type calcium channel subunits (α1B+α2δ+β1b cDNA subunits). Alternatively, N-type calcium channels (α1B+α2δ+β1b cDNA subunits), L-type channels (α1C+α2δ+β1b cDNA subunits) and P/Q-type channels (α1A+α2δ+β1b cDNA subunits) were transiently expressed in HEK 293 cells. Briefly, cells were cultured in Dulbecco's modified eagle medium (DMEM) supplemented with 10% fetal bovine serum, 200 U/ml penicillin and 0.2 mg/ml streptomycin at 37° C. with 5% CO2. At 85% confluency cells were split with 0.25% trypsin/1 mM EDTA and plated at 10% confluency on glass coverslips. At 12 hours the medium was replaced and the cells transiently transfected using a standard calcium phosphate protocol and the appropriate calcium channel cDNAs. Fresh DMEM was supplied and the cells transferred to 28° C./ 5% CO2. Cells were incubated for 1 to 2 days to whole cell recording.
(§7) Whole cell patch clamp experiments were performed using an Axopatch 200B amplifier (Axon Instruments, Burlingame, Calif.) linked to a personal computer equipped with pCLAMP software. The external and internal recording solutions contained, respectively, 5 mM BaCl2, 1 mM MgCl2, 10 mM HEPES, 40 mM TEACl, 10 mM glucose, 87.5 mM CsCl (pH 7.2) and 108 mM CsMS, 4 mM MgCl2, 9 mM EGTA, 9 mM HEPES (pH 7.2). Currents were typically elicited from a holding potential of −80 mV to +10 mV using Clampex software (Axon Instruments). Typically, currents were first elicited with low frequency stimulation (0.03 Hz) and allowed to stabilize prior to application of the compounds. […]

Chains of the proteins cited; added tags and fusions are not shown. Lines headed by an entry give the natural chain unless they say otherwise; changes in a name come on top.
UniProt Q02294, whole entry: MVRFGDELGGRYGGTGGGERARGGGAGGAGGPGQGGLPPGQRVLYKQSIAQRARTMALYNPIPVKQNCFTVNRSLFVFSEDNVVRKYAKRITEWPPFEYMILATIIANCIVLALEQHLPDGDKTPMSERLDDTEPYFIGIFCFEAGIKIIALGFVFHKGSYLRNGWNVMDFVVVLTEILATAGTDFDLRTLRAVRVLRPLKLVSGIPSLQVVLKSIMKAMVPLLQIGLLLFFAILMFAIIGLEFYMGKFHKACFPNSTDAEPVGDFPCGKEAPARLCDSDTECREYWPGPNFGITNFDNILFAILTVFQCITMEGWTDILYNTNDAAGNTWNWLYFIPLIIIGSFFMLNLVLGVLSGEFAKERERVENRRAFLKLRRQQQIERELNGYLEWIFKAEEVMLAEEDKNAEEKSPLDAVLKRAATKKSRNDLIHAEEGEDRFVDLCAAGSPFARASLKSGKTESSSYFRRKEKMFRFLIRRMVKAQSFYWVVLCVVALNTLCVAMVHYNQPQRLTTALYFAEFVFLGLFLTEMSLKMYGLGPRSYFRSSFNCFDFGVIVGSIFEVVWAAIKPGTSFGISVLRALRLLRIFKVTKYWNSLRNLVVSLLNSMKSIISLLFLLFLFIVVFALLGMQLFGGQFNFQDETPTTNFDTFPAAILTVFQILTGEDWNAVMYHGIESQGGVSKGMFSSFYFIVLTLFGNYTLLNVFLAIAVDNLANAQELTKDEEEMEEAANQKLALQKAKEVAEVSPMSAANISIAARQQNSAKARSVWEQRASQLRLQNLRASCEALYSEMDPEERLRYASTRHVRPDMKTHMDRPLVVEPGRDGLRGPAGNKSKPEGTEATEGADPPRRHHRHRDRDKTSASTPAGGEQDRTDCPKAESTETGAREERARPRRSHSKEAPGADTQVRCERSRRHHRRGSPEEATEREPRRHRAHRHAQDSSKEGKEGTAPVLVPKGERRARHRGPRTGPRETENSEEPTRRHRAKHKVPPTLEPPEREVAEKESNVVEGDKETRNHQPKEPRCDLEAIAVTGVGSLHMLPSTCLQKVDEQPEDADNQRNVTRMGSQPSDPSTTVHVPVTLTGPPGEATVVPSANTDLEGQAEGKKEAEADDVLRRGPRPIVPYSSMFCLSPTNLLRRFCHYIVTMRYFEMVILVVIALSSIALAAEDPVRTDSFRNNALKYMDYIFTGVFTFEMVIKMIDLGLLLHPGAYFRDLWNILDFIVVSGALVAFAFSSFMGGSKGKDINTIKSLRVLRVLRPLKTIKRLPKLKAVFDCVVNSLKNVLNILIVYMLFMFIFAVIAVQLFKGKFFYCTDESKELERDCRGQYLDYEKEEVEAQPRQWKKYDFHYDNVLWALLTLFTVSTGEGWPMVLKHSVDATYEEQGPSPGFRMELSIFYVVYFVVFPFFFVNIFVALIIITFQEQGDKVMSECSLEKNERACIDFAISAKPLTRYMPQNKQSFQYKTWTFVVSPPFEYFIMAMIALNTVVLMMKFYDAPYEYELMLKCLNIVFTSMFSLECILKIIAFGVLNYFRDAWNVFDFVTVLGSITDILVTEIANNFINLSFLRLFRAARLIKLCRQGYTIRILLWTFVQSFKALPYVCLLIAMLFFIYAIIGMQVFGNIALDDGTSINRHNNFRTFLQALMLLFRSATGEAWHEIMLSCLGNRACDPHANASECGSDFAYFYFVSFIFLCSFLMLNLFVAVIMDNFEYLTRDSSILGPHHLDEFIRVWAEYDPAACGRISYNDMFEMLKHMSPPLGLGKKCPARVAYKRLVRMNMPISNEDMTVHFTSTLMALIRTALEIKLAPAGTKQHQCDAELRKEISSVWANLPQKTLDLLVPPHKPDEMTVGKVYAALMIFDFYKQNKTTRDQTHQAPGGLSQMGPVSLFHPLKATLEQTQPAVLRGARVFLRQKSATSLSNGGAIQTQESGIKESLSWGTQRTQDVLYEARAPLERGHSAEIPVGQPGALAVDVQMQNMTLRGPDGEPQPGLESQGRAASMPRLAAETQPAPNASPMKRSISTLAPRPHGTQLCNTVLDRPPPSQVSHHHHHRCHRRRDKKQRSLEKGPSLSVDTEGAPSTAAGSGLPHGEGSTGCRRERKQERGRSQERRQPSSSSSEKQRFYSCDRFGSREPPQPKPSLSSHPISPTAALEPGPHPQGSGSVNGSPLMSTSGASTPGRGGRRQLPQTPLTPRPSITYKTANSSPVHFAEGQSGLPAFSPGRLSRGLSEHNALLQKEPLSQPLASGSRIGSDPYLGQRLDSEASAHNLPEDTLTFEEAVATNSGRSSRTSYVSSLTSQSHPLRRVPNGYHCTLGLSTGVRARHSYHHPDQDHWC
UniProt Q13936, whole entry: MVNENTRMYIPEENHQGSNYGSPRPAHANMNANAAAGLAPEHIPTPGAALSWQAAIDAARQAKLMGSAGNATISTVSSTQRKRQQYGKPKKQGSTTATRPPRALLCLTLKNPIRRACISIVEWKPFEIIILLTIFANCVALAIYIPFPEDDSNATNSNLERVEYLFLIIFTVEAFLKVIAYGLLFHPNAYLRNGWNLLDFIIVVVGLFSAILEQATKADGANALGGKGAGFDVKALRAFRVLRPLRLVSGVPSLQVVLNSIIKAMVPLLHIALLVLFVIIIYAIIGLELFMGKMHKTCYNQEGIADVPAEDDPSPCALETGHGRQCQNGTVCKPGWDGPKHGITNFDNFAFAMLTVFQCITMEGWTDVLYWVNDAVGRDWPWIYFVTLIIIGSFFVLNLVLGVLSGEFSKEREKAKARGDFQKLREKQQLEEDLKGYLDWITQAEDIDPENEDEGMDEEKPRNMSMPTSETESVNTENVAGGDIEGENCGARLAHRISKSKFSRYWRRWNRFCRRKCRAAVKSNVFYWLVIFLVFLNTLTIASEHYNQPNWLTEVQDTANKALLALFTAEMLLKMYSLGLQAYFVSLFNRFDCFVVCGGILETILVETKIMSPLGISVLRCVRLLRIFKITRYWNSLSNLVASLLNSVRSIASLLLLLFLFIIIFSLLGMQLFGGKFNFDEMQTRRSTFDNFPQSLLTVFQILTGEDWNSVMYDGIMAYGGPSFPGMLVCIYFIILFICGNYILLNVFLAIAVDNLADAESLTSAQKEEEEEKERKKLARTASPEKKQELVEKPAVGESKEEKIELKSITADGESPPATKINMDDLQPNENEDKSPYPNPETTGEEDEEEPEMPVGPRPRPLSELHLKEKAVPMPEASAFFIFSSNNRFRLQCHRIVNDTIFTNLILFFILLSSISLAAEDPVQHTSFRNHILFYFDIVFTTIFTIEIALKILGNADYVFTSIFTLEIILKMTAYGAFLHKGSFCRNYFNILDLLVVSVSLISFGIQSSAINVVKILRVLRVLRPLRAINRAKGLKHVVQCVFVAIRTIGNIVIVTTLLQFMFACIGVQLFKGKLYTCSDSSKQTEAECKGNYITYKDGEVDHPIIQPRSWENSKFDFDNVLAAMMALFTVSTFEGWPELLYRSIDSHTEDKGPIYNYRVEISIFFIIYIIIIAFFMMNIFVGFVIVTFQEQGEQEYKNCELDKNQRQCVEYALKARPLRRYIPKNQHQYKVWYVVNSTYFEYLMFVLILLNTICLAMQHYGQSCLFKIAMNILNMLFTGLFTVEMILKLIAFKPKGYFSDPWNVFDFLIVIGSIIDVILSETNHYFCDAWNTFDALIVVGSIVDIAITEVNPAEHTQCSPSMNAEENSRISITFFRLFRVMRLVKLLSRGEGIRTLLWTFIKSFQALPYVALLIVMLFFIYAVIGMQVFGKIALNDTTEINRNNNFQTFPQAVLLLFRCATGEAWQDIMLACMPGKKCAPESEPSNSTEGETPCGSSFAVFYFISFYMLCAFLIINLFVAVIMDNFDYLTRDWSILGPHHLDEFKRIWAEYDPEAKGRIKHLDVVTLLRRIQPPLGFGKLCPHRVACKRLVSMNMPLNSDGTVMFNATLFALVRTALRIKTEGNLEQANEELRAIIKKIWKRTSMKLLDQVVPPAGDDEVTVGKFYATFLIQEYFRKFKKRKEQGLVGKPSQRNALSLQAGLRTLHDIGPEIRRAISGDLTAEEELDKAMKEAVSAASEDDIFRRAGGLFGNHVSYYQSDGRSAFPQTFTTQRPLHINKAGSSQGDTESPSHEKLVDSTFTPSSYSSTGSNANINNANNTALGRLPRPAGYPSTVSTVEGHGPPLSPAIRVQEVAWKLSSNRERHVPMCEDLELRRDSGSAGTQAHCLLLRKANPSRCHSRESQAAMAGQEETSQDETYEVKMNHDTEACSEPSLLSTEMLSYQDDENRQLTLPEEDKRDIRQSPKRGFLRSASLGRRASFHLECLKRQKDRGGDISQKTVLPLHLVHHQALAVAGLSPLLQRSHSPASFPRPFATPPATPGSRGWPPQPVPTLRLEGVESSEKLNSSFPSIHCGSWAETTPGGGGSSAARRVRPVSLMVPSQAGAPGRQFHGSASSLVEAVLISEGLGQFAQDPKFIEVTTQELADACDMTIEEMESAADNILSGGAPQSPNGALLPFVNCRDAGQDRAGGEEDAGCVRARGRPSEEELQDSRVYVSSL

The target of test [2] is rat brain N-type calcium channel (α1B+α2δ+β1b) (Rattus norvegicus, UniProt Q02294). The description is as above. As to conditions: read-out: estimated IC50 for the N-type channel at peak current amplitude; peak current amplitude. The method, then: as §1, §2, §3, §4, §5, §6, §7
Test [3] concerns the target L-type channels (α1C+α2δ+β1b) (Homo sapiens, UniProt Q13936). As to the kind of experiment: Whole cell patch clamp block of L-type calcium channels transiently expressed in HEK 293 cells. How it is done: as §5, §6
(§8) Whole cell patch clamp experiments were performed using an Axopatch 200B amplifier (Axon Instruments, Burlingame, Calif.) linked to a personal computer equipped with pCLAMP software. […] Data were analyzed using Clampfit (Axon Instruments) and SigmaPlot 4.0 (Jandel Scientific).

For test [4], the target named is P/Q-type channels (α1A+α2δ+β1b) (Homo sapiens, UniProt O00555). Put plainly: Whole cell patch clamp block of P/Q-type calcium channels transiently expressed in HEK 293 cells. How it is done:
as §5, §6, §8

Where [5] appears, read: from IC50 at half-inactivation voltage at steady state.
The mark [6] stands for this setting: from IC50 at peak current amplitude.

The structures appear in SMILES notation. Like-named read-outs stand apart in the source and are kept apart here.

In the case of `O=C(COc1ccc(Cl)cc1Cl)Nc1ncc([N+](=O)[O-])s1`, the “selectivity for N-type channels versus L-type and P/Q-type (in words)” value in test [1] (N-type, L-type and P/Q-type channels compared) was “somewhat selective for N-type channels”. For the same compound, the “N:L ratio” value in test [1] (setting [5]) is on record as 3.1; in test [1] (setting [6]), 20. The figures for the “N:P ratio” value in test [1] (setting [5]) and in test [1] (setting [6]) were 3.5 and 24, respectively. The IC50 in test [2] was 39 nM; in test [3] (read-out: IC50 for the L-type channel at peak current amplitude, peak current amplitude), 780 nM; in test [3] (read-out: IC50 for the L-type channel at the half-inactivation voltage at steady state, half-inactivation voltage at steady state) it was 100 nM; in test [4] (read-out: IC50 for the P/Q channel at peak current amplitude, peak current amplitude), 940 nM; in test [4] (read-out: IC50 for the P/Q channel at the half-inactivation voltage at steady state, half-inactivation voltage at steady state), 120 nM.

Values taken from US20030199523A1, “Heterocyclic calcium in channel blockers” (priority 2002, published 2003).
